Binding of CDR-mutated scFvs to a peptide of the spike HR2 region

Antigen: PDVDLGDISGINAS, a 14-residue peptide of the SARS-CoV-2 spike HR2 region.

Parent: Ab-14, a human scFv built as VH, three GGGGS repeats, VL. Only the CDRs of the heavy chain vary.
VH: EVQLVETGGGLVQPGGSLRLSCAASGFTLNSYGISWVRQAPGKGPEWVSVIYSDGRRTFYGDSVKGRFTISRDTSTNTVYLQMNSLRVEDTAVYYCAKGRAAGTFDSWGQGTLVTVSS
VL: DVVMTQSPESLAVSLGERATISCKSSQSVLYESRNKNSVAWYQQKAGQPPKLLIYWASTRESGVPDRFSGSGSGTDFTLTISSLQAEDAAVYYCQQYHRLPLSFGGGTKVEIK

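The starting antibody came from a phage panning campaign against this peptide. This is the validation round: designs drawn from the data on random variants, tested in the same kind of assay. Their group label is 14H_En_Gibbs (En: ensemble of fine-tuned language models; Gibbs: Gibbs sampling). Affinity was read by AlphaSeq, a pooled yeast mating assay with surface-displayed partners. After mating in shaken culture at 30 °C for 16 h, diploids were selected and their barcode pairs sequenced. A regression on co-assayed BCL2-family reference pairs converts the normalised counts of each replicate to an apparent Kd. There are six technical replicates.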

Each variant is given by its three heavy chain CDRs, as the data file delimits them; those of the parent are GFTLNSYGIS, VIYSDGRRTFYGDSVK, GRAAGTFDS.
The read-out is the apparent dissociation constant on a log10 scale (nM): the lower, the stronger.
The mean shown is taken over the replicates in which the pair was detected.
A pair that was not seen in that replicate is written "nd"; this usually means weak binding, but a binder can also be missed.
Nonspecific signal, from three strains lacking the peptide, appeared in 1% of pairings of all heavy chain designs, centred on 2.08 (5% of these signals below 0.84); values are not corrected for it. Also given: how often the same scFv was detected with the empty control strains, with their mean in brackets.
The authors' rule: three or more of the six replicates give a measured affinity, fewer mean a poor binder.
A sequence measured in both rounds can read differently, since the two assays cover different ranges.

CDR-H1	CDR-H2	CDR-H3	log10 Kd (nM) by replicate	mean log10 Kd (nM)	control signals
GFQLNEYGIS	VIYADGHRSEYADKVK	GGINSSFGV	nd / nd / nd / nd / nd / nd	nd	0 of 18
GADIEEYGIS	VIYADGVRKYYVNSFK	GEVAGTFTN	nd / nd / nd / nd / nd / nd	nd	1 of 18 (0.75)
GFDINEYGIS	VVYADGMRQAYIEQVK	GTLSGTFDA	nd / nd / nd / nd / nd / nd	nd	0 of 18
GADLNEYGIS	VIYADGSRVEYENSFK	GWVAGTFDS	nd / nd / 2.14 / nd / 2.34 / nd	2.24	0 of 18
GFDLNEYGIS	VIYADGVQRFYTDNVK	GGNQGTAVL	nd / nd / nd / 3.33 / nd / nd	3.33	0 of 18
GFDINEYGIS	VIYADGVRTHYVDDVK	GKHTGVKMM	nd / nd / nd / nd / 0.40 / nd	0.40	0 of 18
GFDLDEMGIS	VIYADGRRTAYSNAVK	GNNVYGLMS	nd / nd / nd / nd / nd / nd	nd	0 of 18
GDSLDEYGIS	VIYADGQRSFYADDVK	GEHDGLMFQ	nd / nd / nd / nd / 3.55 / nd	3.55	1 of 18 (2.53)
EFDLNEYGIS	VIYADGHRTFYAEHVK	GTNAGVFDT	nd / nd / nd / nd / nd / nd	nd	0 of 18
GQLLDDYGIS	VIYADGLRKAYVDDVK	GNVAGTFDM	-0.10 / -0.07 / -0.57 / -1.09 / -0.47 / -0.79	-0.52	0 of 18
GQDLQEYGVS	VIYADGSRTAYADSFK	GQSLGNIVQ	nd / nd / nd / nd / nd / nd	nd	0 of 18
GEDLQEYGIS	VIYADGFRQSYSEKVK	GQHGGFLVK	nd / nd / nd / nd / nd / nd	nd	0 of 18
GQDLNEYGIS	VIYADGFRTAYADTVK	GTYGFMLDS	nd / 1.15 / nd / nd / 0.82 / 1.70	1.22	0 of 18
GFGLNEYGIS	VIYADGVRTAYLQNVK	GIVSGFDQT	nd / nd / nd / nd / nd / nd	nd	0 of 18
GFNLEEYGIS	VIYADGKRTQYSENVK	GHIGNVRVV	nd / nd / nd / nd / nd / nd	nd	0 of 18
GEDLEEYGIS	VIYADGMRQYYANSVK	GTSNDFDML	nd / nd / nd / nd / nd / nd	nd	0 of 18
GFNINEYGIS	VIYADGVRTHYVDDVK	GKHTGVKMM	nd / 1.65 / nd / nd / nd / nd	1.65	0 of 18
GFNIDEYGIS	VIYADGSRAVYTESVK	GHNGMRLVE	nd / nd / nd / nd / nd / nd	nd	0 of 18
GQDINEYGIS	VIYADGIRTAYAISVK	GYHGSQFDI	nd / 0.87 / 0.34 / 0.95 / 0.04 / 0.38	0.52	0 of 18
GFDLNEYGIS	VIYADGRRQMYANPVK	GHMGGMKLT	nd / nd / nd / nd / nd / nd	nd	0 of 18
GYDLNEYGIS	VIYADGIRVAYQNQVK	GNINGSFTF	nd / nd / nd / nd / nd / nd	nd	1 of 18 (1.31)
GFDLDQYGIS	VIYADGRRTAYANDVK	GKYAGSMLS	1.01 / 1.09 / 0.87 / 0.75 / 1.30 / 0.54	0.93	0 of 18
GKSIEEYGIS	VIYADGQRNAYAETVK	GENGGVFSY	nd / nd / nd / nd / nd / nd	nd	0 of 18
GFDLEDYGIS	VIYADGRRQQYAQKFK	GTIGGTFVD	nd / 1.14 / 1.01 / 1.64 / 0.86 / 0.66	1.06	0 of 18
GFNIDEYGIS	VIYADGARTAYADKVK	GFNWNLSVN	nd / nd / nd / nd / nd / nd	nd	0 of 18
GDNLEEYGIS	VIYADGFRSHYAEKVK	GQQGGFFIK	nd / nd / nd / nd / nd / nd	nd	1 of 18 (0.89)
GDSLDEMGIS	VIYADGQRSYYADSVK	GEHDGLFFQ	nd / nd / 2.55 / nd / nd / nd	2.55	0 of 18
GFKLNEYGIS	VIYADGQRKAYTDSFK	GTHAGMVFE	nd / nd / nd / nd / 2.44 / nd	2.44	0 of 18
GFDLEEMGIS	VIYADGARKVYTNSVK	GGFGGQMDV	nd / nd / nd / nd / nd / nd	nd	0 of 18
GFDLDEYGIS	VIYADGTRKMYAPTFK	GEHGGTFLM	1.60 / nd / nd / nd / nd / nd	1.60	1 of 18 (0.96)
GFTIDEYGIS	VIYADGSRVAYDDKFK	GMLVGTFDQ	nd / nd / nd / nd / nd / nd	nd	0 of 18

Repeated from above, the 2 best binders with a signal in all replicates:

{"CDR-H1": "GQLLDDYGIS", "CDR-H2": "VIYADGLRKAYVDDVK", "CDR-H3": "GNVAGTFDM", "log10 Kd (nM) by replicate": "-0.10 / -0.07 / -0.57 / -1.09 / -0.47 / -0.79", "mean log10 Kd (nM)": "-0.52", "control signals": "0 of 18"}
{"CDR-H1": "GFDLDQYGIS", "CDR-H2": "VIYADGRRTAYANDVK", "CDR-H3": "GKYAGSMLS", "log10 Kd (nM) by replicate": "1.01 / 1.09 / 0.87 / 0.75 / 1.30 / 0.54", "mean log10 Kd (nM)": "0.93", "control signals": "0 of 18"}

Data: MIT Lincoln Laboratory AlphaSeq set, Li et al. 2023, doi:10.1038/s41467-023-39022-2, as distributed in FLAb.